Earlier results, collected in publication PMC7497626, “Ruthenium-Mediated ^18F-Fluorination and Preclinical Evaluation of a New CB1 Receptor Imaging Agent [^18F]FPATPP” (ACS Chemical Neuroscience, 2020).

Biological target: CB1Rs
Design: method as in PMID 8070571
Details: cited from earlier work

Question: For Cc1c(C(=O)NN2CCCCC2)nn(-c2ccc(Cl)cc2Cl)c1-c1ccc(Cl)cc1 [Rimonabant], which Ki (CB1Rs in the CNS) is on record?
Answer: 1.98 nM

Question: What about the “Selectivity for CB1Rs over CB2Rs” value of the same compound?
Answer: more than 1000 fold
